Results reported in PMC5512577 (2016).

Target: phosphodiesterase 6 delta subunit (PDE6δ), N-terminal histidine-tagged (UniProt O43924)
Experiment: FP; mantGppNHp-loaded Arl; stopped-flow

koff: 0.035 s⁻¹
B1: full-length Arl3, C-terminal histidine-tagged, bound to GppNHp or mantGppNHp (natural protein)
chain: MGLLSILRKLKSAPDQEVRILLLGLDNAGKTTLLKQLASEDISHITPTQGFNIKSVQSQGFKLNVWDIGGQRKIRPYWRSYFENTDILIYVIDSADRKRFEETGQELTELLEEEKLSCVPVLIFANKQDLLTAAPASEIAEGLNLHTIRDRVWQIQSCSALTGEGVQDGMNWVCKNVNAKKK
